## scFv variants of Ab-95 (light chain) against a SARS-CoV-2 spike peptide

Values reported by Engelhart et al. 2022, doi:10.1038/s41597-022-01779-4 (FLAb copy).

The target is the same throughout: PDVDLGDISGINAS, from the HR2 region of SARS-CoV-2 spike.

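Phage display of a naive human antibody library on the peptide gave the parent. AAYL52 was designed without a model: most single CDR substitutions and a random sample of double and triple ones. AlphaSeq pools MATa yeast showing the antibodies with MATalpha yeast showing the peptide. Binding brings cells together so that they mate, and sequencing counts the barcode pairs among the diploids. Each replicate has its own calibration line, from reference interactions of the BCL2 family. Mating was done three times.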

The variants keep the heavy chain, the linker and the frameworks of Ab-95 (scFv order VH, three GGGGS repeats, VL).
VH: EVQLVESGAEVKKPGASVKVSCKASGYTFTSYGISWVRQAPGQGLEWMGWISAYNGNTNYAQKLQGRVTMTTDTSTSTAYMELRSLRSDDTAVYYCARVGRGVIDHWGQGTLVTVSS
VL: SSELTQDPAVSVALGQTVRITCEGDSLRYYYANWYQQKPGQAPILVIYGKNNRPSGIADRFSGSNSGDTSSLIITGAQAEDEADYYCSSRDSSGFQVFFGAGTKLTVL

Each variant is given by its three light chain CDRs, as the data file delimits them; those of the parent are EGDSLRYYYAN, GKNNRPS, SSRDSSGFQVF. Numbers give log10(Kd / nM), so 0 is 1 nM and 3 is 1 µM. Smaller is tighter. "ND" means that the variant was in the library but no mating with the target was seen in that replicate; the authors take this as a sign of poor binding, and no number exists.

CDR-L1	CDR-L2	CDR-L3	log10 Kd, replicates	empty controls
EGDSLRYYYAN	GKNNRRS	NSRDSSGGQVF	4.54 / 3.92 / 3.13	1/9 (4.02)
EGDSLRYYHAN	GNNNRPS	SSRDSIGFQVF	2.01 / 1.93 / 1.62	4/9 (3.58)
EGDSCRYYYAN	GKNRRPS	SSRDSSGFQWF	ND / ND / ND	3/9 (3.99)
EGDSLRYYYAN	GKLNRPS	SSRDSEGFQVI	3.81 / ND / ND	0/9
EGPSLYYYYAN	GKNNRPS	SSRDSSGFQDF	ND / ND / ND	3/9 (3.35)
EGDSLRYYYFN	GKNNRPS	SSTDSSGFQIF	5.50 / 3.65 / ND	1/9 (3.49)
EGDSLRGYYAN	GKNCLPS	SSRDSSGFQVF	3.09 / 2.80 / 2.95	6/9 (4.24)
EGDSLRYYYAN	GKNVRPS	SSTDSSDFQVF	2.65 / 3.35 / 3.86	1/9 (3.34)
CGDSLRYGYAN	GHNNRPS	SSRDSSGFQVF	1.00 / 1.08 / 0.42	3/9 (2.93)
EGDSLRYTAAQ	GKNNRPS	SSRDSSGFQVF	1.86 / 1.81 / 1.63	3/9 (4.34)
EGDSLRYYYAN	NKNNRPS	SWRDSSGFQVD	4.17 / ND / ND	5/9 (3.95)
ESDSLRYLYCN	GKNNRPS	SSRDSSGFQVF	3.75 / 4.36 / 3.10	3/9 (3.61)
EGDSLRYYYAN	GKWNRES	SSRDSSMFQVF	ND / ND / 2.70	1/9 (2.88)
QGDCLRYYYAN	GKNNRPS	SSRKSSGFQVF	3.34 / 4.31 / ND	4/9 (3.69)
ERDSLRYYYAN	GKNNRPS	QPRDSSGFQVF	3.15 / 3.48 / 2.44	1/9 (3.52)
EGDSLSMYYAN	PKNNRPS	SSRDSSGFQVF	3.84 / 3.62 / 4.16	5/9 (3.90)
VGDSLRYYYAQ	GKNNRPS	SSRDSSGFQVF	ND / ND / ND	0/9
EGDSMRYYYAN	GKNNRPN	SSRDSSDFQVF	ND / ND / 2.92	2/9 (3.16)
EGDSLRYYYAN	GMNARPS	SSRDSDGFQVF	3.44 / 3.47 / 3.58	3/9 (3.19)
NGDSLRYYYAN	YKNNRPS	SSRDSSGFQVP	ND / ND / ND	3/9 (4.23)
EGDSLRSYYAN	GKNNRPS	SSRDSSGFQWF	2.17 / 2.20 / 2.01	4/9 (3.86)
EGDSLWYYYAN	SKNNRPS	SSRDSSGFDVF	ND / ND / ND	0/9
EGDSLRYYYAN	GKNNRPS	ISRDPSGFWVF	3.26 / 2.87 / 2.93	3/9 (4.32)
EGDSLKYYYAN	GNNNRPS	SSPDSSGFQVF	2.33 / 2.43 / 2.05	2/9 (4.21)
EGDSLTYYYAN	GKNLRPS	SSRDYSGFQVF	3.10 / 3.21 / 2.62	3/9 (3.76)
EGDSWRYYYAN	GKNNRPS	SSRDISGFFVF	ND / 4.00 / ND	2/9 (4.07)
QGDSLRYYYTN	GKNNRPS	SSRDSSGFQAF	2.25 / 2.23 / 1.61	7/9 (4.13)
IGDSLRYYYAN	GKNNRPS	SHRDSSGRQVF	ND / 4.28 / ND	3/9 (4.34)
EGDSLRAYYAN	GKNNDPS	SSRDSSGFQIF	3.82 / ND / ND	4/9 (3.95)
EGDSLRYYYAN	HKNNRPS	SSRDYSGFWVF	ND / ND / ND	4/9 (3.65)
EGDSLRPYYAN	GKNNRPS	SSRDSSGFQKF	2.93 / 2.66 / 2.85	4/9 (3.89)
EPDSLRYYYLN	GKNNMPS	SSRDSSGFQVF	5.23 / ND / ND	3/9 (4.02)
EGDSLRYYYAN	GKEERPS	SSRWSSGFQVF	2.62 / 2.89 / 1.79	4/9 (3.33)
EGDSLRNYYVN	GKNNRPS	SSRDSSGFLVF	5.29 / ND / ND	0/9
EGDSLRYYYIN	GKNNIPS	SSRDSSGFQYF	ND / ND / ND	2/9 (3.58)
EGDKLRYYGAN	GKNGRPS	SSRDSSGFQVF	2.90 / 5.56 / 4.06	1/9 (2.87)
EGDSLRYTYAH	GVNNRPS	SSRDSSGFQVF	3.78 / 3.06 / ND	2/9 (4.40)
YGCSLRYYYAN	GKNNRPS	FSRDSSGFQVF	3.64 / 5.77 / 3.99	4/9 (3.87)
EGDKLRYYYAN	GKNDRPS	SSRDSSGFQVQ	ND / 3.97 / ND	1/9 (5.01)
EGNSLWYYYAN	GKNNRPS	SSRWSSGFQVF	3.62 / ND / 4.59	4/9 (4.04)
EGDSLRYYYAN	GKNNQPN	SSRDSSGFTVF	ND / ND / 3.86	2/9 (4.15)
IGDSLTYYYAN	GKNKRPS	SSRDSSGFQVF	3.10 / 3.58 / 3.28	2/9 (3.85)
EGDSLMYYYAN	GKNNRPM	SSRDSSGFQVF	2.44 / 2.62 / 1.73	2/9 (3.19)

From the list, the first 4 with no signal in any replicate:

CDR-L1	CDR-L2	CDR-L3	log10 Kd, replicates	empty controls
EGDSCRYYYAN	GKNRRPS	SSRDSSGFQWF	ND / ND / ND	3/9 (3.99)
EGPSLYYYYAN	GKNNRPS	SSRDSSGFQDF	ND / ND / ND	3/9 (3.35)
VGDSLRYYYAQ	GKNNRPS	SSRDSSGFQVF	ND / ND / ND	0/9
NGDSLRYYYAN	YKNNRPS	SSRDSSGFQVP	ND / ND / ND	3/9 (4.23)

Empty control strains, which show no peptide, gave a signal in 28% of pairings with library AAYL52; the median was 3.91 and 95% of these signals were weaker than 2.90. No background was subtracted. Also given: how often the same scFv was detected with the empty control strains, with their mean in brackets. For reference, the parent read 2.31 as the reference entry and 2.25 as a member of this library.